Sequences of proteins named here, by UniProt entry; tags and fusion partners are left off.
UniProt P11309, whole entry: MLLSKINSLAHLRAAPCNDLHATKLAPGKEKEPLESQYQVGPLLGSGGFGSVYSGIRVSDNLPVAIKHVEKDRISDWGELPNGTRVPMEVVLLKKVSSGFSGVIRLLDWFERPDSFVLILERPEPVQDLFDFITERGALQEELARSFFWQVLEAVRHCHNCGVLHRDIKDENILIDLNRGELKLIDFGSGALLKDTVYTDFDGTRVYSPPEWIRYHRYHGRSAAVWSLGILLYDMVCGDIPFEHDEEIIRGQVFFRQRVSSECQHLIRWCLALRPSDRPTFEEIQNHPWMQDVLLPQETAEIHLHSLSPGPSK

According to ChEMBL document CHEMBL1781944, “The discovery of novel benzofuran-2-carboxylic acids as potent Pim-1 inhibitors” (Bioorg Med Chem Lett, 2011):

Molecular target: Serine/threonine-protein kinase pim-1 (Homo sapiens, UniProt P11309)

Work on N[C@H]1CC[C@H](Nc2cncc(-c3ccc4oc(C(=O)O)cc4c3)n2)CC1 yielded an IC50 of 120 nM.
